Experimental findings from PubChem BioAssay AID463193 (University of Pittsburgh Molecular Library Screening Center, 2010) are described below.

Molecules are shown by their SMILES. Only a part is listed here, and it is no random draw. Calls of active or inactive are those of the source.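 How the source made its calls: active means percentage of spot-positive cells more than 3 SD above its plate mean, without a fluorescence outlier flag or 80% toxicity; inconclusive means no clear call, values can overlap the other calls; inactive means the rest.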

The assay can be described thus: GFP-LC3 puncta formation changes – imaging, high-content, MEF GFP-LC3, primary screen (AID 463193).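 Further: spot-positive cell cutoff set from DMSO-treated cells.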 As to conditions: autophagy, at 10 µM, stronger effect = higher value.
Take `O=c1c2cc([N+](=O)[O-])ccc2[nH]c2c([N+](=O)[O-])cc([N+](=O)[O-])cc12`: the % cells with GFP-LC3 spots was active: 11.4%.
